By UniProt entry, the sequences of proteins in these tests, tags left out. Residues count along the entry.
UniProt P02786, 89-760 limits assumed: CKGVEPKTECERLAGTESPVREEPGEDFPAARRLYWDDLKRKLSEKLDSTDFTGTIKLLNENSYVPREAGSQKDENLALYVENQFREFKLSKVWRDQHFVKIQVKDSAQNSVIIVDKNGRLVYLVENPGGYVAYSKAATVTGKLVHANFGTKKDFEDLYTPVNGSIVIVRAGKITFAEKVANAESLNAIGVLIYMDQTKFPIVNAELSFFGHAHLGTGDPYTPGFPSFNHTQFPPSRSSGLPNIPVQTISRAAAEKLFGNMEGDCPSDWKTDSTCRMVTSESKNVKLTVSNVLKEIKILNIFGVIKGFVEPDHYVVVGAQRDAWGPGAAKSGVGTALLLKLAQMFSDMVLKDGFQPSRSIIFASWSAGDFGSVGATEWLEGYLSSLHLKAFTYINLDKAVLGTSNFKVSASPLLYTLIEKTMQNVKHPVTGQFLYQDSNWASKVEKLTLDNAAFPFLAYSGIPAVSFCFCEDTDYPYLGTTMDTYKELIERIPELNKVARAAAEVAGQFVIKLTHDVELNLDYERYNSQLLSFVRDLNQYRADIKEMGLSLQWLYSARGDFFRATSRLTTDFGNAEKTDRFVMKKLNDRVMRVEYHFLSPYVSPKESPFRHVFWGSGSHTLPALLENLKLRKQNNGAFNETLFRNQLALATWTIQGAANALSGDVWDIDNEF

According to patent publication US20260116920A1, “HUMAN TRANSFERRIN RECEPTOR BINDING PEPTIDE” (PEPTIDREAM INC., priority 2021, published 2026):

These molecules were tested against T1, human transferrin receptor (hTfR) (Homo sapiens, UniProt P02786) (assay: Evaluation of molecular interaction between transferrin receptor (hTfR) and peptide using surface plasmon resonance (SPR)). Conditions: KD class of the peptide with linker for hTfR by surface plasmon resonance; read-out: SPR.
T1 construct: made in house
Format: binding
Procedure: Evaluation Test of Molecular Interaction Between Transferrin Receptor (hTfR) and Peptide Using Surface Plasmon Resonance (SPR)
The intermolecular interactions of various synthesized peptides with the transferrin receptor (hTfR) by surface plasmon resonance (SPR) of the peptides were tested by the methods described below. Specific test methods are shown below.
NTA sensor chip (Global Life Sciences Technologies Japan K.K.) was inserted into BiacoreT200 (Global Life Sciences Technologies Japan K.K.), then the priming operation was performed three times by using running buffer containing: 10 mM HEPES pH 8.0 (Nacalai Tesque, Inc.), 150 mM NaCl (Nacalai Tesque, Inc.), 0.05% Tween 20 (Nacalai Tesque, Inc.), 0.1% BSA (SIGMA-ALDRICH) and 1.0% DMSO (FUJIFILM Wako Pure Chemical Corporation), and equilibrated at a flow rate of 30 μL/min. 350 mM EDTA solution was reacted at a flow rate of 10 μL/min for 60 seconds, 0.5 mM […] solution (Kishida Chemical Co., Ltd.) was reacted at a flow rate of 10 μL/min for 60 seconds, and then the NTA sensor chip was washed with 3 mM EDTA solution (Nacalai Tesque, Inc.) at a flow rate of 10 μL/min for 60 seconds. After mixing 50 μL each of 60 mM EDC solution (Global Life Science Technologies Japan K.K.) and 650 mM NHS solution (Global Life Science Technologies Japan K.K.), the reaction was carried out at a flow rate of 10 μL/min for 420 seconds. 150 μL of 0.5 μM hTfR dimer solution was prepared by dilution with running buffer and reacted at a flow rate of 10 μL/min for 300 seconds to immobilize hTfR on the NTA sensor chip. For the human transferrin receptor (hTfR), recombinant hTfR described in Example 2 of WO2018/124121 was used. After immobilization, capping was performed by reacting with 1.0 M ethanolamine solution (Global Life Sciences Technologies Japan K.K.) at a flow rate of 10 μL/min for 420 seconds. Peptide lysate prepared in DMSO solution to 10 mM was diluted with running buffer to be a final concentration of 10 μM peptide lysate, then peptide solutions of 100 nM, 50 nM, 25 nM, 10 nM, and 5 nM were prepared. Using the above samples, the kinetics of the peptide against hTfR was obtained by SPR measurement.
The kinetic evaluation model was single-cycle kinetics, and curve fitting was performed using Biacore T200 Evaluation Software Version 3.0 (Global Life Science Technologies Japan K.K.). The binding of the peptide to hTfR was evaluated by performing curve fitting on the obtained sensorgram by least squares method and obtaining the KD value.

| SMILES | Kd |
| --- | --- |
| CC[C@H](C)[C@@H]1NC(=O)[C@H](Cc2ccc(OCC(=O)O)cc2)NC(=O)[C@H](Cc2ccc(O)cc2)NC(=O)[C@H](CC(N)=O)NC(=O)[C@H](Cc2cn(CC(=O)O)c3ccccc23)NC(=O)[C@H](C(C)C)NC(=O)[C@H](Cc2cccc(Cl)c2)N(C)C(=O)[C@H](C(C)C)NC(=O)[C@H](C)NC(=O)CSC[C@@H](C(=O)NCC(=O)NCC(=O)N[C@H](CCCNC(=N)N)C(=O)NCC(=O)N[C@H](CCCNC(=N)N)C(=O)N[C@H](CO)C(=O)N[C@@H](CCCCN=[N+]=[N-])C(N)=O)NC(=O)[C@H](Cc2ccc(O)cc2)N(C)C(=O)[C@H](Cc2cccc(C(=O)O)c2)NC(=O)[C@H](CCCNC(=N)N)NC(=O)[C@H](CCC(N)=O)NC(=O)[C@H]([C@@H](C)CC)NC1=O [compound 278] | 1 to 100 nM |
| CC[C@H](C)[C@@H]1NC(=O)[C@H](Cc2ccc(OC)cc2)NC(=O)[C@H](Cc2ccc(O)cc2)NC(=O)[C@H](CC(N)=O)NC(=O)[C@H](Cc2c[nH]c3ncccc23)NC(=O)[C@H](C(C)C)NC(=O)[C@H](Cc2cccc(Cl)c2)N(C)C(=O)[C@H](C(C)C)NC(=O)[C@H](C)NC(=O)CSC[C@@H](C(=O)NCC(=O)N[C@@H](CCCCN=[N+]=[N-])C(N)=O)NC(=O)[C@H](Cc2ccc(O)cc2)N(C)C(=O)[C@H](Cc2ccncc2)NC(=O)[C@H](CCCNC(=N)N)NC(=O)[C@H](CCCNC(=N)N)NC(=O)[C@H]([C@@H](C)CC)NC1=O [compound 281] | < 1 nM |
| CC[C@H](C)[C@@H]1NC(=O)[C@H](Cc2ccc(OCC(=O)O)cc2)NC(=O)[C@H](Cc2ccc(O)cc2)NC(=O)[C@H](CC(N)=O)NC(=O)[C@H](Cc2cn(CC(=O)O)c3ccccc23)NC(=O)[C@H](C(C)C)NC(=O)[C@H](Cc2cccc(Cl)c2)N(C)C(=O)[C@H](C(C)C)NC(=O)[C@H](C)NC(=O)CSC[C@@H](C(=O)NCC(=O)NCCOCCOCCOCCOCCOCCOCCOCCOCCOCCOCCOCCOCCOCCOCCOCCOCCOCCOCCOCCOCCOCCOCCOCCOCCC(=O)N[C@@H](CCCCN)C(N)=O)NC(=O)[C@H](Cc2ccc(O)cc2)N(C)C(=O)[C@H](Cc2cccc(C(=O)O)c2)NC(=O)[C@H](CCCCN2CCOCC2)NC(=O)[C@H](CCCCN2CCOCC2)NC(=O)[C@H]([C@@H](C)CC)NC1=O [compound 282] | 1 to 100 nM |
| CC[C@H](C)[C@@H]1NC(=O)[C@H](Cc2ccc(OCC(=O)O)cc2)NC(=O)[C@H](Cc2ccc(O)cc2)NC(=O)[C@H](CC(N)=O)NC(=O)[C@H](Cc2cn(CC(=O)O)c3ccccc23)NC(=O)[C@H](C(C)C)NC(=O)[C@H](Cc2cccc(Cl)c2)N(C)C(=O)[C@H](C(C)C)NC(=O)[C@H](C)NC(=O)CSC[C@@H](C(=O)NCC(=O)N[C@H](CO)C(=O)N[C@H](CO)C(=O)N[C@H](CO)C(=O)N[C@H](CO)C(=O)N[C@H](CO)C(=O)N[C@@H](CCCCN)C(N)=O)NC(=O)[C@H](Cc2ccc(O)cc2)N(C)C(=O)[C@H](Cc2cccc(C(=O)O)c2)NC(=O)[C@H](CCCCN2CCOCC2)NC(=O)[C@H](CCCCN2CCOCC2)NC(=O)[C@H]([C@@H](C)CC)NC1=O [compound 283] | 1 to 100 nM |
| CC[C@H](C)[C@@H]1NC(=O)[C@H](Cc2ccc(OCC(=O)O)cc2)NC(=O)[C@H](Cc2ccc(O)cc2)NC(=O)[C@H](CC(N)=O)NC(=O)[C@H](Cc2cn(CC(=O)O)c3ccccc23)NC(=O)[C@H](C(C)C)NC(=O)[C@H](Cc2cccc(Cl)c2)N(C)C(=O)[C@H](C(C)C)NC(=O)[C@H](C)NC(=O)CSC[C@@H](C(=O)NCC(=O)N[C@H](CO)C(=O)N[C@H](CO)C(=O)N[C@H](CO)C(=O)N[C@H](CO)C(=O)N[C@H](CO)C(=O)N[C@H](CO)C(=O)N[C@H](CO)C(=O)N[C@H](CO)C(=O)N[C@H](CO)C(=O)N[C@H](CO)C(=O)N[C@@H](CCCCN)C(N)=O)NC(=O)[C@H](Cc2ccc(O)cc2)N(C)C(=O)[C@H](Cc2ccccc2)NC(=O)[C@H](CCCNC(=N)N)NC(=O)[C@H](CCCNC(=N)N)NC(=O)[C@H]([C@@H](C)CC)NC1=O [compound 284] | 1 to 100 nM |
| CC[C@H](C)[C@@H]1NC(=O)[C@H](Cc2ccc(OCC(=O)O)cc2)NC(=O)[C@H](Cc2ccc(O)cc2)NC(=O)[C@H](CC(N)=O)NC(=O)[C@H](Cc2c[nH]c3ncccc23)NC(=O)[C@H](C(C)C)NC(=O)[C@H](Cc2cccc(Cl)c2)N(C)C(=O)[C@H](C(C)C)NC(=O)[C@H](C)NC(=O)CSC[C@@H](C(=O)NCC(=O)N[C@@H](CCCCN)C(N)=O)NC(=O)[C@H](Cc2ccc(O)cc2)N(C)C(=O)[C@H](Cc2cccc(C(=O)O)c2)NC(=O)[C@H](CCCNC(=N)N)NC(=O)[C@H](CCC(=O)NCCOCCOCCOCCOCCOCCOCCOCCOC)NC(=O)[C@H]([C@@H](C)CC)NC1=O [compound 286] | < 1 nM |
| CC[C@H](C)[C@@H]1NC(=O)[C@H](Cc2ccc(OCC(=O)O)cc2)NC(=O)[C@H](Cc2ccc(O)cc2)NC(=O)[C@H](CC(N)=O)NC(=O)[C@H](Cc2cn(CC(=O)O)c3ccccc23)NC(=O)[C@H](C(C)C)NC(=O)[C@H](Cc2cccc(Cl)c2)N(C)C(=O)[C@H](C(C)C)NC(=O)[C@H](C)NC(=O)CSC[C@@H](C(=O)NCC(=O)N[C@@H](CCCCN)C(N)=O)NC(=O)[C@H](Cc2ccc(O)cc2)N(C)C(=O)[C@H](Cc2cccc(C(=O)O)c2)NC(=O)[C@H](CCCNC(=N)N)NC(=O)[C@H](CCC(N)=O)NC(=O)[C@H]([C@@H](C)CC)NC1=O [compound 287] | < 1 nM |
| CC[C@H](C)[C@@H]1NC(=O)[C@H](Cc2ccc(O)cc2)NC(=O)[C@H](Cc2ccc(O)cc2)NC(=O)[C@H](CC(N)=O)NC(=O)[C@H](Cc2c[nH]c3ccccc23)NC(=O)[C@H](C(C)C)NC(=O)[C@H](Cc2ccccc2)N(C)C(=O)[C@H](C(C)C)NC(=O)[C@H](C)NC(=O)CSC[C@@H](C(=O)NCC(=O)N[C@H](CCC(=O)O)C(=O)N[C@H](CCC(=O)O)C(=O)N[C@H](CCC(=O)O)C(=O)N[C@H](CO)C(=O)N[C@H](CO)C(=O)N[C@@H](CCCCNC(=O)C2CCC(CN3C(=O)C=CC3=O)CC2)C(N)=O)NC(=O)[C@H](Cc2ccc(O)cc2)N(C)C(=O)[C@H](Cc2ccc(O)cc2)NC(=O)[C@H](CCCNC(=N)N)NC(=O)[C@H](CCCNC(=N)N)NC(=O)[C@H]([C@@H](C)CC)NC1=O (some centres unmarked) [compound 289] | 1 to 100 nM |
| CC[C@H](C)[C@@H]1NC(=O)[C@H](Cc2ccc(OCC(=O)O)cc2)NC(=O)[C@H](Cc2ccc(O)cc2)NC(=O)[C@H](CC(N)=O)NC(=O)[C@H](Cc2cn(CC(=O)O)c3ccccc23)NC(=O)[C@H](C(C)C)NC(=O)[C@H](Cc2cccc(Cl)c2)N(C)C(=O)[C@H](C(C)C)NC(=O)[C@H](C)NC(=O)CSC[C@@H](C(=O)NCC(=O)N[C@@H](CCCCNC(=O)C2CCC(CN3C(=O)C=CC3=O)CC2)C(N)=O)NC(=O)[C@H](Cc2ccc(O)cc2)N(C)C(=O)[C@H](Cc2cccc(C(=O)O)c2)NC(=O)[C@H](CCCNC(=N)N)NC(=O)[C@H](CCC(N)=O)NC(=O)[C@H]([C@@H](C)CC)NC1=O (some centres unmarked) [compound 290] | 1 to 100 nM |

Same assay, conditions: SPR, KD class of the peptide with linker for hTfR by surface plasmon resonance

| SMILES | Kd |
| --- | --- |
| CC[C@H](C)[C@@H]1NC(=O)[C@H](Cc2ccc(OCC(=O)O)cc2)NC(=O)[C@H](Cc2ccc(O)cc2)NC(=O)[C@H](CC(N)=O)NC(=O)[C@H](Cc2cn(CC(=O)O)c3ccccc23)NC(=O)[C@H](C(C)C)NC(=O)[C@H](Cc2cccc(Cl)c2)N(C)C(=O)[C@H](C(C)C)NC(=O)[C@H](C)NC(=O)CSC[C@@H](C(=O)NCC(=O)NCC(=O)NCC(=O)NCC(=O)N[C@@H](CO)C(=O)N[C@@H](CO)C(=O)N[C@@H](CCCCN=[N+]=[N-])C(N)=O)NC(=O)[C@H](Cc2ccc(O)cc2)N(C)C(=O)[C@H](Cc2cccc(C(=O)O)c2)NC(=O)[C@H](CCCNC(=N)N)NC(=O)[C@H](CCC(N)=O)NC(=O)[C@H]([C@@H](C)CC)NC1=O [compound 279] | 1 to 100 nM |
| CC[C@H](C)[C@@H]1NC(=O)[C@H](Cc2ccc(OCC(=O)O)cc2)NC(=O)[C@H](Cc2ccc(O)cc2)NC(=O)[C@H](CC(N)=O)NC(=O)[C@H](Cc2cn(CC(=O)O)c3ccccc23)NC(=O)[C@H](C(C)C)NC(=O)[C@H](Cc2cccc(Cl)c2)N(C)C(=O)[C@H](C(C)C)NC(=O)[C@H](C)NC(=O)CSC[C@@H](C(=O)NCC(=O)N(C)CC(=O)N(C)CC(=O)N(C)CC(=O)N(C)CC(=O)N(C)CC(=O)N[C@@H](CCCCN=[N+]=[N-])C(N)=O)NC(=O)[C@H](Cc2ccc(O)cc2)N(C)C(=O)[C@H](Cc2cccc(C(=O)O)c2)NC(=O)[C@H](CCCNC(=N)N)NC(=O)[C@H](CCC(N)=O)NC(=O)[C@H]([C@@H](C)CC)NC1=O [compound 280] | 1 to 100 nM |
